One assay deals with legumain (Homo sapiens, UniProt Q99538). The assay can be described thus: IQF substrate hydrolysis kinetics with legumain. The conditions noted are these: substrate 1.46-25 μM, citric acid/Na2HPO4 buffer pH 5.8, 37 °C, mean of at least three, SD <10%. As to the method:
(§1) All kinetic measurements were performed using a Spectra Max Gemini XPS spectrofluorimeter (Molecular Devices) at 37 °C. For the substrates with the new donor acceptor pair, ACC/DNP, the excitation wavelength was 355 nm, and the emission wavelength was 460 nm; for MCA/DNP, the corresponding values were 325 and 420 nm, respectively. The substrate concentrations were varied, and the enzyme concentration was kept constant in each assay; the total reaction volume was 100 μl. Measurements were conducted for 30 min, and only the linear part of the progress curve was used to determine the reaction velocity. The measurements were repeated, and the data presented are the average of at least three measurements. The catalytic parameters kcat and KM were established using GraphPad Prism software to directly fit the initial velocities and initial substrate concentrations to the Michaelis-Menten equation using non-linear regression analysis.
Pro-legumain was auto-activated in buffer containing 100 mM sodium acetate, 1 mM EDTA, and 10 mM DTT at pH 4.5 for 2.5 h at 37 °C[63]. Assays involving legumain were performed in buffer containing 40 mM citric acid, 1 mM EDTA, 120 mM Na2HPO4, and 10 mM DTT at pH 5.8. The enzyme was incubated with the assay buffer for 20 min at 37 °C prior to the substrate addition and the measurement. For legumain, the concentration of substrates containing ACC ranged from 1.46 to 25 μM, and the enzyme concentration was 7.3 nM. The concentration of substrates containing MCA ranged from 1.46 to 25 μM, and the enzyme concentration was 24.5 nM.

Amino acid sequences for entries named in this document (tags omitted). Residues count along the entry.
UniProt Q99538, 18-323 limits assumed: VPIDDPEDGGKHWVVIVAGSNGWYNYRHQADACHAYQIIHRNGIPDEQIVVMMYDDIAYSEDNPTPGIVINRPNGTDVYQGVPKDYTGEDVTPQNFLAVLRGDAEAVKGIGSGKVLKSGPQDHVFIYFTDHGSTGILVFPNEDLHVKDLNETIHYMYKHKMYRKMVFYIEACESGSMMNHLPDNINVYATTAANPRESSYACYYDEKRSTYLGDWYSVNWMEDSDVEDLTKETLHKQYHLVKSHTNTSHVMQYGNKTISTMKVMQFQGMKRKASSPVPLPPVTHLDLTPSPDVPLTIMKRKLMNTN
UniProt P08253, 110-660 limits assumed: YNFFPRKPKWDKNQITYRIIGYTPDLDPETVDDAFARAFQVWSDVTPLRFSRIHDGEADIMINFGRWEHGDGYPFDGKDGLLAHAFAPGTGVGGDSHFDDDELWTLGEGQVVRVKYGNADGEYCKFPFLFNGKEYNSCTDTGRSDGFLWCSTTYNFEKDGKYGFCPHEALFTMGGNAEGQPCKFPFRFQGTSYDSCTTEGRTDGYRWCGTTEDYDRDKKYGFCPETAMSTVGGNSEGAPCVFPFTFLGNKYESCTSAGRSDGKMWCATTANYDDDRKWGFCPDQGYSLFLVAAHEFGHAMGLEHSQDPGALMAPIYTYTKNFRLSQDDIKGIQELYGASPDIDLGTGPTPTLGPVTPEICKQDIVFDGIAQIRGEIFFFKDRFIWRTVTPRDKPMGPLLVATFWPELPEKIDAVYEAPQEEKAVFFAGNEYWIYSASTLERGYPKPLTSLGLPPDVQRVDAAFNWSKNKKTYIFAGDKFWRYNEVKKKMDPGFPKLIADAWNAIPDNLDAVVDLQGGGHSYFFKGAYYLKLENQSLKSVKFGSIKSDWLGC
UniProt P14780, 107-707 limits assumed: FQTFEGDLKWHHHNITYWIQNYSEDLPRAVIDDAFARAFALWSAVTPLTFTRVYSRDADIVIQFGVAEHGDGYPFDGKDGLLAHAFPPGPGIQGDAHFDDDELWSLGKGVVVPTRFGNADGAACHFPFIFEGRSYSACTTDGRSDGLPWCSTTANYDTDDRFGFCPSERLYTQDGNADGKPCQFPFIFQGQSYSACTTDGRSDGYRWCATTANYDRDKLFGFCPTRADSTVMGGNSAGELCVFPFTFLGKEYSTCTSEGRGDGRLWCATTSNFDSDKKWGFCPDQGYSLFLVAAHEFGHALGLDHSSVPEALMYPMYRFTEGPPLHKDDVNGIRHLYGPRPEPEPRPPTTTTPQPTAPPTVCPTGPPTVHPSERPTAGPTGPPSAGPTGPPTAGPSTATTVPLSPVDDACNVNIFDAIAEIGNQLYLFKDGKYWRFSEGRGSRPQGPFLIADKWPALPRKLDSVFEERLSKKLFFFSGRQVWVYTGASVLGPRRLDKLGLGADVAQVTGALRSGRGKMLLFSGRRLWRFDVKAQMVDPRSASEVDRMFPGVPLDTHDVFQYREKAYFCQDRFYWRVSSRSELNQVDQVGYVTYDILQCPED

Another assay deals with MMP2 (Homo sapiens, UniProt P08253). The assay is described as follows: IQF substrate hydrolysis kinetics with MMP2. The conditions noted are these: 0.1 M Tris-HCl, 0.1 M NaCl, 10 mM CaCl2 pH 7.5, 37 °C, mean of at least three, SD <10%. As to the method: as §1
(§2) The MMP2 proenzyme was activated with 2 mM 4-aminophenylmercuric acetate (APMA) in 50 mM Tris buffer containing 150 mM NaCl and 5 mM CaCl2 for 1 h at 25 °C[60]. The MMP9 proenzyme was activated autocatalytically for 2 h in assay buffer at 25 °C[58]. Assays involving MMP2 and MMP9 were performed in a buffer containing 0.1 M Tris-HCl, 0.1 M NaCl, and 10 mM CaCl2 at pH 7.5[58][60]. Enzymes were incubated with assay buffer for 40 min at 37 °C prior to the substrate addition and the measurement. For MMP2, the concentration of substrates containing ACC ranged from 3.5 to 60 μM, and the enzyme concentration was 1.25 nM. The concentration of substrates containing MCA was ranged from 5.85 to 100 μM, and the enzyme concentration was 3.8 nM. For MMP9, the concentration of substrates containing ACC ranged from 1.8 to 30 μM, and the enzyme concentration was 2.4 nM. The concentration of substrates containing MCA ranged from 3.0 to 50 μM, and the enzyme concentration was 7.2 nM.

Another assay deals with MMP9 (Homo sapiens, UniProt P14780). The assay can be described thus: IQF substrate hydrolysis kinetics with MMP9. Particulars: 0.1 M Tris-HCl, 0.1 M NaCl, 10 mM CaCl2 pH 7.5, 37 °C, mean of at least three, SD <10%. How it is done: as §1, §2
The mark [1] stands for this setting: ACC/Lys(DNP) substrate, legumain 7.3 nM, ex 355/em 460 nm.
[2] abbreviates: MCA/Lys(DNP) substrate, legumain 24.5 nM, ex 325/em 420 nm.
[3] abbreviates: MCA/Lys(DNP) substrate, MMP2 3.8 nM, substrate 5.85-100 μM, ex 325/em 420 nm.
Where [4] appears, read: MCA/Lys(DNP) substrate, MMP9 7.2 nM, substrate 3.0-50 μM, ex 325/em 420 nm.
Where [5] appears, read: ACC/Lys(DNP) substrate, MMP2 1.25 nM, substrate 3.5-60 μM, ex 355/em 460 nm.
The mark [6] stands for this setting: ACC/Lys(DNP) substrate, MMP9 2.4 nM, substrate 1.8-30 μM, ex 355/em 460 nm.

For orientation: Km means the concentration of substrate that gives half-maximal velocity. The term kcat denotes the number of substrate molecules converted per active site and unit of time at saturation. As for `CC(C)[C@H](NC(=O)[C@H](CCCCN)NC(=O)[C@H](CC(N)=O)NC(=O)[C@@H](NC(=O)[C@@H]1CCCN1C(=O)CNC(=O)Cc1cc(=O)oc2cc(N)ccc12)[C@@H](C)O)C(=O)N[C@@H](CCCCNc1ccc([N+](=O)[O-])cc1[N+](=O)[O-])C(=O)N[C@@H](CCCNC(=N)N)C(N)=O`, at legumain (setting [1]), the Michaelis-Menten constant (Km) was 9.13 µM, the kcat is 1.35 s⁻¹ and the kcat/KM is on record as 149 000 M^−1s^−1.

With `COc1ccc2c(CC(=O)NCC(=O)N3CCC[C@H]3C(=O)N[C@H](C(=O)N[C@@H](CC(N)=O)C(=O)N[C@@H](CCCCN)C(=O)N[C@H](C(=O)N[C@@H](CCCCNc3ccc([N+](=O)[O-])cc3[N+](=O)[O-])C(=O)N[C@@H](CCCNC(=N)N)C(N)=O)C(C)C)[C@@H](C)O)cc(=O)oc2c1`, at legumain (setting [2]), the Km was 8.11 µM, the kcat was 1.09 s⁻¹ and the kcat/KM is reported as 139 000 M^−1s^−1.

In the case of `COc1ccc2c(CC(=O)NCC(=O)N3CCC[C@H]3C(=O)N[C@@H](CC(C)C)C(=O)NCC(=O)N[C@@H](CC(C)C)C(=O)N[C@@H](CCCCNc3ccc([N+](=O)[O-])cc3[N+](=O)[O-])C(=O)N[C@@H](C)C(=O)N[C@@H](CCCNC(=N)N)C(N)=O)cc(=O)oc2c1`, at MMP2 (setting [3]), the Km turned out to be 35.1 µM, the kcat was 6.24 s⁻¹ and the kcat/KM is recorded as 179 900 M^−1s^−1. Also, on MMP9 (setting [4]), the Km came to 11.7 µM, the kcat is 0.958 s⁻¹ and the kcat/KM was 82 400 M^−1s^−1.

As to `CC(C)C[C@H](NC(=O)CNC(=O)[C@H](CC(C)C)NC(=O)[C@@H]1CCCN1C(=O)CNC(=O)Cc1cc(=O)oc2cc(N)ccc12)C(=O)N[C@@H](CCCCNc1ccc([N+](=O)[O-])cc1[N+](=O)[O-])C(=O)N[C@@H](C)C(=O)N[C@@H](CCCNC(=N)N)C(N)=O`, at MMP2 (setting [5]), the Km amounted to 15.4 µM, the kcat was 4.26 s⁻¹ and the kcat/KM was 278 800 M^−1s^−1. In addition, on MMP9 (setting [6]), the Km stood at 7.81 µM, the kcat amounted to 0.69 s⁻¹ and the kcat/KM is 89 200 M^−1s^−1.

The values are drawn from article PMC5322338 (Scientific Reports, 2017).
